This assay deals with recombinant human CCR5 receptor (Homo sapiens, UniProt P51681). Kind of assay: MIP-1α radioligand binding assay (scintillation proximity, CHO cell membranes). The conditions noted are these: negative log (base 10) of IC50, displacement of 0.1 nM iodinated MIP-1α, average if tested more than once. Here is the method:
The ability of compounds to inhibit the binding of MIP-1α was assessed by an in vitro radioligand binding assay. Membranes were prepared from Chinese hamster ovary cells which expressed the recombinant human CCR5 receptor. These membranes were incubated with 0.1 nM iodinated MIP-1α, scintillation proximity beads and various concentrations of the compounds of the invention in 96-well plates. The amount of iodinated MIP-1α bound to the receptor was determined by scintillation counting. Competition curves were obtained for compounds and the concentration of compound which displaced 50% of bound iodinated MIP-1α was calculated (IC50).
In Table XV the results are presented as Pic50 values. A Pic50 value is the negative log (to base 10) of the IC50 result, so an IC50 of 1 μM (that is 1×10^−6M) gives a Pic50 of 6. If a compound was tested more than once then the data below is an average of the probative tests results.
In general terms: Scintillation proximity formats need no separation of bound from free tracer.

Protein sequences, listed by entry. Tags and fused reporters are not part of them.
UniProt P51681, whole entry: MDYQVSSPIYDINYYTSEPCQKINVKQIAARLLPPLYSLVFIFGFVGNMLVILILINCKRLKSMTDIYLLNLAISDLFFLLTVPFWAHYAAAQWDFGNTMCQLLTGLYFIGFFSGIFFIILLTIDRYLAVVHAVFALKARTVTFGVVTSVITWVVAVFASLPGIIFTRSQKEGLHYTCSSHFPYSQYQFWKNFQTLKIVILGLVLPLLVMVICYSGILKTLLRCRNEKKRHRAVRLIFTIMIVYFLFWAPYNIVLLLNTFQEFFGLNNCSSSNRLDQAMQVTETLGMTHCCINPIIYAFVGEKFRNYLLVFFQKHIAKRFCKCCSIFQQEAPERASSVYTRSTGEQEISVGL

The values that follow come from patent publication US20060189650A1, “Novel piperidine derivatives as modulators of chemokine receptor ccr5” (priority 2002, published 2006).

In the case of `CS(=O)(=O)c1ccc(S(=O)(=O)CCC2CCN(CCC(c3ccccc3)N3CCN(c4ccccc4)CC3)CC2)cc1` (single isomer, unassigned), the Pic50 is, setting by setting: (listed as I 8) 8.58; (listed as III 1) 8.8.

For `CS(=O)(=O)c1ccc(S(=O)(=O)CCC2CCN(CCC(c3ccccc3)C3CCN(S(C)(=O)=O)CC3)CC2)cc1` (centres unmarked), the Pic50 was found to be 7.9.

For `CN(C)S(=O)(=O)N1CCC([C@@H](CCN2CCC(CCS(=O)(=O)c3ccc(S(C)(=O)=O)cc3)CC2)c2cc(F)cc(F)c2)CC1`, the Pic50 was 9.0.

For the molecule `CS(=O)(=O)N1CCC(C(CCN2CCC(CCS(=O)(=O)c3ccccc3)CC2)c2ccccc2)CC1` (centres unmarked), the Pic50 is 8.63.

For `Cn1nnnc1COc1ccc(S(=O)(=O)CCC2CCN(CC[C@H](c3ccc(S(C)(=O)=O)cc3)c3cc(F)cc(F)c3)CC2)cc1`, the Pic50 is given as 8.85.

On to `CS(=O)(=O)c1ccc(S(=O)(=O)CCC2CCN(CC[C@@H](c3cc(F)cc(F)c3)C3CCSCC3)CC2)cc1`, for which the Pic50 is reported as 9.3.

Regarding `CS(=O)(=O)c1ccc([C@@H](CCN2CCC(CS(=O)(=O)Cc3ccccc3)CC2)c2ccccc2)cc1`, the Pic50 is on record as 8.95.
